Paper PMC3039983, “Cloning, Expression, and Characterization of Thermotolerant Manganese Superoxide Dismutase from Bacillus sp. MHS47” (International Journal of Molecular Sciences, 2011)

By UniProt entry, the sequences of proteins in these tests, tags left out. Residues count along the entry.
UniProt E9LK91, 1-203 limits assumed: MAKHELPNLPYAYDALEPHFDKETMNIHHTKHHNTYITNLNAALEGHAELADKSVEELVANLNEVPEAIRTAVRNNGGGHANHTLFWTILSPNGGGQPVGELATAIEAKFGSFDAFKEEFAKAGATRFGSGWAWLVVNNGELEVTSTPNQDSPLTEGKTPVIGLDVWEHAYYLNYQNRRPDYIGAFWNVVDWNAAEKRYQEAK

Biological target: MnSOD47 (Bacillus sp. MHS47, UniProt E9LK91)
Test: native PAGE activity staining (NBT)
Conditions: 10 mM azide, pH 7.5, 37 °C, 1 h preincubation; qualitative inhibition

[N-]=[N+]=N
native PAGE activity staining (NBT): The enzyme’s activity was inhibited by sodium azide (NaN3)
